Earlier results on one molecule are cited in article PMC5454592, “Pharmacological and Toxicological Properties of the Potent Oral γ-Secretase Modulator BPN-15606” (The Journal of Pharmacology and Experimental Therapeutics, 2017).

The subject of the series is Aβ42 in rat CSF. The conditions noted are these: dose of 30 mg/kg; ref Blain et al., 2016; cited from earlier work.

As for `COc1nc(C2=NOC[C@H](c3cc4ccccc4o3)N2)ccc1-n1cnc(C)c1` (single isomer, unassigned), the “maximum reduction of Aβ42 in rat CSF” value was 58%.
